Assay results published in patent US20020197261A1, “Therapeutic agent/ligand conjugate compositions, their methods of synthesis and use” (priority 2001, published 2002).

Assays:
[1] = test system: MDA-MB-468 cells that do not express Her2/neu receptors; assay: Confocal fluorescent microscopy binding to MDA-MB-468 cells (negative control cells); assay type: cell-based, human
Experimental: (§1) BODIPY (excitation/emission: 503/511 nm) and Adr (excitation/emission: 480/540-nm) were used to facilitate confocal fluorescent microscopic studies. Cells were grown on Lab-Tek II Chamber Slide (Nalge Nunc International, Naperville, Ill.) to 50% of confluence and incubated with immunoconjugates at 37° C. for various times. PEG-PG-Adr and PEG-PG-BODIPY were used as no-antibody polymer controls. […] Cells were washed three times with PBS, fixed in 95% ethanol, and then treated with 1 μM TO-PRO-3 Iodide (Molecular Probes, Eugene, Oreg.) for 15 minutes for nuclei staining. Fluorescent images of cells were analyzed using LMS-510 confocal microscopy (Zeiss, Thornwood, N.Y.).
It was not clear, however, whether the conjugates were internalized.

[2] = Particle size by light scattering (volume-weighted Gaussian analysis); assay type: physicochemical
From the text: The nature of the polymeric aggregates may be attributed to the formation of nanoparticles with a hydrophobic core stabilized by outer hydrophilic PEG chains. Several lines of evidence support this conclusion. 1). […] Yokoyama, et al, Preparation of micelle-forming polymer-drug conjugates. Bioconjugate Chem. 3:295-101, 1992). 2). The formation of particles with volume-average diameter of 207 nm was detected by light scattering. […] 3).

[3] = test system: A431 cells; assay: Confocal fluorescent microscopy binding and internalization in A431 cells; assay type: cell-based, human
Experimental: as §1, with “TO-[…]” for “TO-PRO-3”, “N.Y.). […] The process was very rapid, internalization was observed as early as 5 minutes after drug exposure.” for “N.Y.).”

[4] = test system: A431 cells; assay: MTT cytotoxicity, 6-hour pretreatment system; assay type: cell-based, human; settings: read-out: IC50 (50% growth inhibition), 6 hours exposure, washing, additional 72 hours incubation

For Her-PEG-PG-BODIPY, the “binding to MDA-MB-468 cells” value [1] was “did not bind to MDA-MB-468 cells”.
With C225-PEG-PG-Adr the “dvolume (volume-average particle diameter)” value [2] was 16 nm, the “time at which binding of conjugate to cells reached maximum” value ([3]; 37° C., confocal microscopic studies) was ≤ 6 h and the “earliest time at which internalization was observed after drug exposure” value ([3]; A431 cells) was 5 min. The localization to nuclei ([3]; A431 cells, confocal microscopy) was “co-localized with nuclei”, the “binding to A431 cells” value ([3]; at 15 minutes, confocal microscopy) was “selectively bound to A431 cells” and the “internalization into A431 cells” value ([3]; confocal microscopy) was “clearly visualized”. It also gave an IC50 [4] of 1.69 µM.
